The assay addresses 3',5'-cyclic-AMP phosphodiesterase 4D (Homo sapiens, UniProt Q08499). Put plainly: Inhibition of human His-tagged PDE4D catalytic domain expressed in Escherichia coli BL21-CodonPlus(DE3) cells using [3H]cAMP or [3H]cGMP as substrate incubated for 30 mins by scintillation counting method.

Sequences of proteins named here, by UniProt entry; tags and fusion partners are left off. A change or cut given only in a name is not applied to a line headed by its entry.
UniProt Q08499: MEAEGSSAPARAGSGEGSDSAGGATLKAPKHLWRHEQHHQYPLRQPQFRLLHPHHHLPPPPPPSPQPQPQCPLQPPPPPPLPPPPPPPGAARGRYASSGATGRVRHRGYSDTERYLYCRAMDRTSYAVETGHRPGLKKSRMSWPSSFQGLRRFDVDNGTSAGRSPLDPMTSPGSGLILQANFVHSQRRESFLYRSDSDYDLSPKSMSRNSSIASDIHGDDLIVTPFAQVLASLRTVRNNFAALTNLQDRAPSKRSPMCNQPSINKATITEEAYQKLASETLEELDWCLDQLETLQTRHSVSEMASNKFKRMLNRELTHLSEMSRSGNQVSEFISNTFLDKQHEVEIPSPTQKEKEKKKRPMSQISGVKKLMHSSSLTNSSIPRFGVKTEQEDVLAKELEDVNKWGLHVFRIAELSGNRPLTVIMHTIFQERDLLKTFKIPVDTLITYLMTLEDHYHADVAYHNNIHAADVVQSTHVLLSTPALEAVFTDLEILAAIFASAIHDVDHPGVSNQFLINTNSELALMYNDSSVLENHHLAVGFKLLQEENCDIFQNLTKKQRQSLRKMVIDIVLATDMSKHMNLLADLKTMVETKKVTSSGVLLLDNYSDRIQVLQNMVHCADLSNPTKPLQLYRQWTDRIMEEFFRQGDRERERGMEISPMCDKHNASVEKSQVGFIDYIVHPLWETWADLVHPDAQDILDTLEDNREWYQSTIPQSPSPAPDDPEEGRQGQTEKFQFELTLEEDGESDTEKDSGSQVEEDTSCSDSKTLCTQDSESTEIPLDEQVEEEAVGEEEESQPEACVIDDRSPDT

In the case of `CCOC(=O)c1c(C)nn(-c2ccccc2)c1C`, the half-inhibitory concentration (IC50) (as a rule, the concentration that inhibits the measured activity by half) was 270 nM.

Source of the values: ChEMBL document CHEMBL4425088, “PDEStrIAn: A Phosphodiesterase Structure and Ligand Interaction Annotated Database As a Tool for Structure-Based Drug Design” (J Med Chem, 2016).
